# Data as given in patent publication US20240158355A1, “BET SUBFAMILY INHIBITORS AND METHODS USING SAME” (Baylor College of Medicine, priority 2021, published 2024).
# Molecular target: His-BRDT-BD2 (Homo sapiens (Human), UniProt Q58F21)
# Conditions: 0 = theoretically present in the library but not detected in the sequencing data
compound,measurement,value
"CNC(=O)c1ccc(C(=O)Nc2cc(NC(=O)c3ccc4c(c3)c(-c3ccc(N)cc3C)nn4C)ccc2C)cc1 [compound 9, N^1-(5-(3-(4-Amino-2-methylphenyl)-1-methyl-1H-indazole-5-carboxamido)-2-methylphenyl)-N^4-methylterephthalamide]",Count (observed molecule count in the DEC-Tec screen against BRDT-BD2),721
